Measured values published in US20240352053A1, “SALT AND CRYSTAL FORM OF EGFR INHIBITOR, AND COMPOSITION AND USE THEREOF” (BETTA PHARMACEUTICALS CO., LTD, priority 2021, published 2024).

Assay: Measurement of crystal form stability (HPLC chemical purity, XRPD)
Type: physicochemical
Details: placement time 10 days
Experimental: The X-ray powder diffraction pattern detection equipment and method of the present invention are as shown in the X-ray powder diffraction table in the instrument and analysis method. After the test compounds are placed under different temperature, humidity and light conditions for a period of time, the purity is tested. Purity testing method: Use high-performance liquid chromatography (HPLC) to detect the chemical purity of this product. Determine according to high performance liquid chromatography (“Chinese Pharmacopoeia” 2020 edition, Part IV, General Chapter 0512). Use octadecylsilane bonded silica gel as the filler (Waters XBridge Shield RP18 (4.6×250 mm, 5 μm)), 0.1% triethanolamine, 0.01 mol/L potassium dihydrogen phosphate solution (use phosphoric acid to adjust the pH value to 2.8) is mobile phase A, and acetonitrile is mobile phase B. The detection wavelength is 220 nm, the flow rate is 1.0 mL/min, and the column temperature is 35° C. The detection results are detailed in Table 29. XRPD characterization was performed on the samples after being placed under different temperature, humidity and light conditions for a period of time. The XRPD detection spectrum (in addition to the compounds in Table 28, the test substances also include the crystal form of the compound shown in Formula I) is basically the same.

For COc1cc(N2CCC(N3CCN(C)CC3)CC2)c(C)cc1Nc1ncc(Br)c(Nc2ccc3nc(C4CC4)ccc3c2P(C)(C)=O)n1.O=C(O)C[C@H](O)C(=O)O [Crystal form J of the compound represented by formula III], the “Chemical purity (%) 60° C.” value was 98.61%.
